Laboratory results reported in US4818770A, “Prevention of a plant disease by specific inhibition of fungal polyamine biosynthesis” (priority 1986, dated 1989).

Test system: Colletotrichum lagenarium
Assay: Infection of National Pickling cucumber plants by cucumber anthracnose
Conditions: 1.0-10.0 mM

Row | Compound | reduction of infection of cucumber plants
1 | NCCCC(N)(C(=O)O)C(F)F (racemic) [DFMO, DL-alpha-difluorimethylornithine] | Neither DFMO, DFMA, nor their combination, reduced the infection
2 | N=C(N)NCCC[C@](N)(C(=O)O)C(F)F [DFMA, alpha-difluoromethylarginine] | Neither DFMO, DFMA, nor their combination, reduced the infection
